This is an account of results in article PMC10814725, “In Vitro Anti-Inflammatory Study of Limonoids Isolated from Chisocheton Plants” (Current Issues in Molecular Biology, 2024).

What all share (format): cell-based, human
One assay deals with MCP-1. Kind of assay: ELISA of MCP-1 production in LPS-stimulated THP-1 cells. Particulars: THP-1 CC50 / MCP-1 IC50. As for the experimental part: (§1) The logarithmic growth phase of THP-1 cells was achieved by seeding in 96-well plates at a density of 5 × 10^4 cells/well and differentiated for 24 h in the presence of PMA (0.5 μM solution in medium). After 24 h of incubation, the culture medium was removed from the 96-well plate and the cells were washed with PBS. […] The cells were pretreated with 17 limonoids at the corresponding concentration for 1 h, followed by the addition of LPS (10 ng/mL) and then incubation at 37 °C for 18 h. Finally, 50 μL of each culture supernatant solution was taken to determine the concentrations of IL-6, MCP-1, and IL-1β using the corresponding commercially available human ELISA kits following the manufacturer’s instructions. The analyte concentration in the supernatant was measured in pg/mL, and the inhibition level was expressed as a fold change compared to the LPS (−) control group. To determine the IC50 value, the dose-response data were normalized to the LPS-stimulated-only group, and the percentage of inhibition was calculated using the following formula: % Inhibition=(Absorbance of LPS+ control−Absorbance of compound treatment with LPS)/(Absorbance of LPS+ control−Absorbance of LPS− control)×100
(§2) Furthermore, the % inhibition data were interpolated into linear equations to determine the IC50 values.

For the next assay, the system named is IL-6. Briefly: ELISA of IL-6 production in LPS-stimulated THP-1 cells. Particulars: THP-1 CC50 / IL-6 IC50. The method, then: as §1, §2
In another assay the test system is TNF-α. Kind of assay: ELISA of TNF-α production in LPS-stimulated THP-1 cells. Particulars: THP-1 CC50 / TNF-α IC50.

Regarding `C[C@@H]1C[C@H]2[C@@H]3CCC4=CC(=O)C=C[C@]4(C)[C@@]3(F)[C@@H](O)C[C@]2(C)[C@@]1(O)C(=O)CO` [Dex, dexamethasone, reference compound], the “MCP-1 SI (selectivity index, CC50/IC50)” value with MCP-1 was determined as 56.46. The “IL-6 SI (selectivity index, CC50/IC50)” value in the assay on IL-6 is recorded as 39.20. Further, in the assay with TNF-α, the “TNF-α SI (selectivity index, CC50/IC50)” value is 13.01.
